This assay deals with GLP-1 receptor of RINm5f cell membranes (UniProt P32301). Briefly: cell-based or functional assay.

For the substance exendin-4 (peptide), the GLP-1 Cyclase EC50 worked out at 0.27 nM.

For the origin of these results see patent US6924264.
